Laboratory results: US20200115416A1 (REGENTS OF THE UNIVERSITY OF MINNESOTA, published 2020)

The chains behind the UniProt entries cited, without tags or fusion partners.
UniProt P32245, whole entry: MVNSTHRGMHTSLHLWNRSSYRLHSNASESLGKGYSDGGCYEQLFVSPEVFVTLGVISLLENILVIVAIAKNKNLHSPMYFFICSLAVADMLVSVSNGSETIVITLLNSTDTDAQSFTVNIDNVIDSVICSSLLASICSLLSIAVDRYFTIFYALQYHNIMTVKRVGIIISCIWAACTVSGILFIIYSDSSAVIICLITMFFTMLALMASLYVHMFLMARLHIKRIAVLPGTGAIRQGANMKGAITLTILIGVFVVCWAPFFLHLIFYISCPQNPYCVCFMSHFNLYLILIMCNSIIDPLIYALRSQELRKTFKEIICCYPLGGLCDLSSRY

Legend:
[1] = biological target: T1, human melanocortin-4 receptor (human, UniProt P32245 1-332); assay: displacement of 125I-AGRP, HEK293 cells expressing hMC4R
T1 construct: whole, on cells; in the thallium flux assay co-expressed with Kir7.1 (M125R); also called hMC4R; wildtype hMC4R

[2] = biological target: T1, human melanocortin-4 receptor; assay: displacement of 125I-NDP-MSH, HEK293 cells expressing hMC4R

PRFFHAFP (head-to-tail cyclic; DPro at 8) [c[Pro-Arg-Phe-Phe-His-Ala-Phe-DPro]]
IC50 [1]: 44 nM | IC50 [2]: 120 nM
